Measurements taken from US20230082611A1, “COMPOSITIONS AND METHODS FOR THE TREATMENT OF RESPIRATORY SYNCYTIAL VIRUS” (Cidara Therapeutics, Inc., priority 2019, published 2023).
pEC50: −log10 of the molar value. Read-outs that look alike come from different tables or passages of the source.

System: RSV Long strain
Experiment: RSV microneutralization assay, RSV Long strain
Assay type: cell-based
Conditions: human respiratory syncytial virus, read-out: RSV Long EC50
Experimental: HEp-2 cells (ATCC #CCL-23) were seeded at 5E4/well/200 μL in DMEM (Fisher cat #11965118) supplemented with 10% heat-inactivated (HI) fetal bovine serum (HI-FBS; Fisher cat #10-082-147), 1× penicillin-streptomycin (P/S, 100 μg/mL; Fisher cat #MT30002C), and 1× L-glutamine (L-Gln, 2 mM; Fisher cat #25030-164) in 96-well tissue culture treated plates (Fisher cat #08-772-17) and incubated overnight at 37° C. and 5% CO2. Duplicate 10-fold serial dilutions of compound in DMEM with 2% HI-FBS, 1× P/S, 2 mM L-Gln were prepared in 96-well tissue culture plates at 60 μL/well. The RSV Long strain (RetroVirox, San Diego), RSV A2 strain (Virapur, San Diego), RSV B1 strain (RetroVirox, San Diego), or RSV strain CH18537 (RetroVirox, San Diego), were diluted in DMEM with 2% HI-FBS, 1× P/S, 2 mM L-Gln and 60 μL/well added to 60 μL compound for a multiplicity of infection (MOI) of 0.002 (Long, A2), 0.003 (B1), or 0.004 (CH18537). Virus only (no drug) and cells only (no virus, no drug) controls were included on each plate. The compound-virus mix was incubated for 1 h at 37° C. and 5% CO2. […] Absorbance was read at 450 nm with an EnSpire multimode plate reader (PerkinElmer). The mean A450 for the cells only control was subtracted from all A450 values, and the percent virus neutralisation calculated for each compound concentration, relative to the virus only control.

pEC50 (144 h, MOI 0.002, HEp-2 cells, day 6) | SMILES | pEC50 (HEp-2, 144 h)
6.82 | C#CCOCCOCCNC(=N)N[C@H]1CCN(c2nc3cc([C@@H]4CCCCN4C(=O)c4cc(Cl)ccc4NS(C)(=O)=O)nn3cc2C)C1 [Int-6] | 
 | C#CCOCCOCCOCCOCCOCCOCCOCCOCCOCCOCCOCCOCCCCN[C@H]1CCN(c2nc3cc([C@@H]4CCCCN4C(=O)c4cc(Cl)ccc4NS(C)(=O)=O)nn3cc2C)C1 [Int-28] | 6.82
